Article PMC4621360

Biological target: Kap95 (S. cerevisiae) (UniProt Q06142)
Test: NMR titration; 15N R2 titration at 500 MHz in buffer A (20 mM HEPES, 150 mM KCl, 2 mM MgCl2, pH 6.5); Kap95 fixed at 20 μM, 15N FSFG-K varied from 12.5 to 1200 μM; apparent Kd, taken as a lower bound

“FSFG-K, M-Nsp1(274–397)-LEHHHHHH (domain or fragment)” was tested, and the apparent Kd for each FSFG site was 216 µM, the sequence-specific apparent Kd (G of FSFG) was 17 µM and the sequence-specific apparent Kd (S of FSFG) was 55 µM. For the same substance, the sequence-specific apparent Kd (first F of FSFG) was 31 µM and the sequence-specific apparent Kd (second F of FSFG) was 44 µM.
